# Reference: patent publication US6498945B1, “Sonodynamic therapy using an ultrasound sensitizer compound” (Amersham Health AS, priority 1997, dated 2002)
# Tested on: leucocytes (white blood cells)
# Assay: Fate in dog blood (confocal scanning microscope, flow cytometry)
# Settings: injected into beagle dogs
substance,measurement,value
Air-exposed-Tetronic-908-conjugated-to-fluorescein Isothiocyanate,effect on leucocyte function,without impacting their function
